Data reported in ChEMBL document CHEMBL3797166, “Identification of N-phenyl-2-(N-phenylphenylsulfonamido)acetamides as new RORγ inverse agonists: Virtual screening, structure-based optimization, and biological evaluation” (Eur J Med Chem, 2016).
Calls of active or inactive are those of the source. No cut-off for these calls is given here.

By UniProt entry, the sequences of proteins in these tests, tags left out. Where a name states a change or a piece, a line headed by the entry shows the natural chain unless it says otherwise.
UniProt P51449: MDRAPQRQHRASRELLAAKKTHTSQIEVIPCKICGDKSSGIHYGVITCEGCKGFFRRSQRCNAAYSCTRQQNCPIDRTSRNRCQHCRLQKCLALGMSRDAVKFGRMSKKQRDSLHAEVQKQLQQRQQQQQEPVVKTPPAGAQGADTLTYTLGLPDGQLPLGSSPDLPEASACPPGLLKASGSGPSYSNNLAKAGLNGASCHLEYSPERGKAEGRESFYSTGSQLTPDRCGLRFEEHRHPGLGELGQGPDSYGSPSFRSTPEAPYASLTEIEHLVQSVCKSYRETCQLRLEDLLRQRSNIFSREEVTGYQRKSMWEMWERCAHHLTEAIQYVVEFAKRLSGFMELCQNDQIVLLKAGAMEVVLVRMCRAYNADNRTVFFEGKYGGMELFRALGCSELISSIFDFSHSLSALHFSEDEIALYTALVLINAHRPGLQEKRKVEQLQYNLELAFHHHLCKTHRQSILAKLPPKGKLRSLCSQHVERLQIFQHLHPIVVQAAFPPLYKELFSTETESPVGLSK

Molecular target: Nuclear receptor ROR-gamma (Homo sapiens, UniProt P51449)

SMILES	deltaTm	ΔTm [°C]
Cc1ccc(S(=O)(=O)N(CC(=O)Nc2cccc(C(=O)O)c2)c2cccc(C(F)(F)F)c2)cc1	inactive	–
COC(=O)c1ccc(CNC(=O)CN(c2cccc(C(F)(F)F)c2)S(=O)(=O)c2ccc(C)cc2)cc1	inactive	–
COC(=O)c1cccc(NC(=O)CN(c2cccc(C(F)(F)F)c2)S(=O)(=O)c2ccc(C)cc2)c1	inactive	–
CCCCCCNC(=O)CN(c1cccc(C(F)(F)F)c1)S(=O)(=O)c1ccc(C)cc1	inactive	–

Other lines, results leading:

deltaTm	ΔTm [°C]	SMILES
–	0.25	Cc1ccc(S(=O)(=O)N(CC(=O)Nc2ccc(OCc3ccccc3)cc2)c2cccc(C(F)(F)F)c2)cc1
–	0.9	Cc1ccc(S(=O)(=O)N(CC(=O)Nc2ccc(OC(F)(F)F)cc2)c2cccc(C(F)(F)F)c2)cc1
